Molecular target: bovine GRK5 (Bos taurus, UniProt P43249)
Assay: GRK5 kinase inhibition
Conditions: read-out: GRK5 IC50; average of three separate experiments run in duplicate; error of the mean

Chains of the proteins cited; added tags and fusions are not shown.
UniProt P43249, whole entry: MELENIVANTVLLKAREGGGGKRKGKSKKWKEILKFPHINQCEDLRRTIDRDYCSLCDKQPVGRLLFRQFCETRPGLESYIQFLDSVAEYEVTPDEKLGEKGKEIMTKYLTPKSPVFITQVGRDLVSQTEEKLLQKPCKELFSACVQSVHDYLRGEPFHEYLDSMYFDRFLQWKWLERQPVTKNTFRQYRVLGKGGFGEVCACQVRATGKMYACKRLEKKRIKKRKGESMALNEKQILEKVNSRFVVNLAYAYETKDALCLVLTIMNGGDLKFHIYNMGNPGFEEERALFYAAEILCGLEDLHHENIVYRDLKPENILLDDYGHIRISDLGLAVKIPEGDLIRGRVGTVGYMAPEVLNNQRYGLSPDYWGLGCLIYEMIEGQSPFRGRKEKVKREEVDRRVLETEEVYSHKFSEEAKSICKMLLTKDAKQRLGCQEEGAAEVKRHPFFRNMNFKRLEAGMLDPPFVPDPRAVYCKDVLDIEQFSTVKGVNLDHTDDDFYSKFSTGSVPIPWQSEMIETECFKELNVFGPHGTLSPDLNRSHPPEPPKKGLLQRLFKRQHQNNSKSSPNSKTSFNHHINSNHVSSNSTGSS

O=C(NCc1ccn[nH]1)c1cc([C@@H]2CCNC[C@H]2COc2ccc3c(c2)OCO3)ccc1F [14as, N-((1H-pyrazol-5-yl)methyl)-5-((3S,4R)-3-((benzo[d][1,3]dioxol-5-yloxy)methyl)piperidin-4-yl)-2-fluorobenzamide]
IC50: 7.09 ± 0.73 µM

From article PMC5641445 (Journal of medicinal chemistry, 2017)
